The chains behind the UniProt entries cited, without tags or fusion partners.
UniProt Q96P20, whole entry: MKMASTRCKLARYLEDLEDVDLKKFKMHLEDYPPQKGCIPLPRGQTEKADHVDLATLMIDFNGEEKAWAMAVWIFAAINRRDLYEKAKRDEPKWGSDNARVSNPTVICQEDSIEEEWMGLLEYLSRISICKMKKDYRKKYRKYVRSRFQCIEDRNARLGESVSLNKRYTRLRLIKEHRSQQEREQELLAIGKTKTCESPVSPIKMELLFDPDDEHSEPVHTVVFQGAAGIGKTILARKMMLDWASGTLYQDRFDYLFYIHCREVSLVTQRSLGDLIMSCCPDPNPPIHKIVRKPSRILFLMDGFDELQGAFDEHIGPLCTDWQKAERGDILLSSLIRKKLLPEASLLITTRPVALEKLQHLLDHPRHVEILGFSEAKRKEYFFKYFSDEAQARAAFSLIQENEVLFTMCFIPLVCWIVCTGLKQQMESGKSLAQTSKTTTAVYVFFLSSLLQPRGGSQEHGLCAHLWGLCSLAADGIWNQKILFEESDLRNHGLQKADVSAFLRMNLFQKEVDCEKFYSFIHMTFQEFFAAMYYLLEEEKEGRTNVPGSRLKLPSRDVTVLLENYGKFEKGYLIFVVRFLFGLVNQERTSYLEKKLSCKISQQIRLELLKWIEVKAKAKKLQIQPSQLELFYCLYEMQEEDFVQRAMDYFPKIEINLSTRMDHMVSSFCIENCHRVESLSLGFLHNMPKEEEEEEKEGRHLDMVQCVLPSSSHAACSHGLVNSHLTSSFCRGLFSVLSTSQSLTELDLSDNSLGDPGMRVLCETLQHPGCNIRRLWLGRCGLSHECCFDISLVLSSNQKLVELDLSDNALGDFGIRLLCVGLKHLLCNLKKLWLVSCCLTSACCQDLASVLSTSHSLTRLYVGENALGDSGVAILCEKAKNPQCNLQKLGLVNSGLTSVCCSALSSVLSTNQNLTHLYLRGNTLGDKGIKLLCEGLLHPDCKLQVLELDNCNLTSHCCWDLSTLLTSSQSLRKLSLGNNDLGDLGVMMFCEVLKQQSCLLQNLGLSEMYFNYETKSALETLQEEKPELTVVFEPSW

According to patent publication US20250114361A1, “PYRAZOLOPYRIMIDINE COMPOUND AND PHARMACEUTICAL USE THEREOF” (Japan Tobacco Inc., priority 2022, published 2025):

Target: NLRP3 inflammasome (Homo sapiens (Human), UniProt Q96P20)
Experiment: NLRP3 inflammasome inhibitory activity: inhibition of IL-1β production in THP1-Null cells (PMA, LPS, Nigericin)
Settings: Nigericin 7.5 μmol/L
Experimental: The NLRP3 inflammasome inhibitory activity of test compounds were evaluated on the basis of the inhibitory activity of the IL-1β production in THP1-Null cells (Product Number: thp-null, InvivoGen). Cells were maintained for culture in RPMI-1640 media containing 10% (v/v) fetal bovine serum, 25 mmol/L HEPES, 100 U/mL penicillin, 100 μg/mL streptomycin, 100 μg/mL normocin, and 200 μg/mL hygromycin B (set at 37° C., 5% CO2/95% air).
Cells were suspended with media for assay containing 0.5 μmol/L PMA (RPMI-1640 media containing 10% (v/v) fetal bovine serum, 100 U/mL penicillin, and 100 μg/mL streptomycin), and the suspended cells were seeded on Corning (registered trademark) 384-well Flat Clear Bottom Black Polystyrene TC-treated Microplates (25,000 cells/25 μL/well), followed by incubation (set at 37° C., 5% CO2/95% air) overnight. […]
The amount of IL-1β in the culture supernatant was quantitated with AlphaLISA (registered trademark) Human IL-1β Detection Kit (Product Number: AL220C, Perkin Elmer). Fluorescence intensity was measured with a microplate reader EnSpier (Model number: 2300-00J, Perkin Elmer) or EnSight (Model number: HH34000000, Perkin Elmer) according to procedure manuals attached thereto. Inhibition rates of the test compound-setting wells were calculated on the basis of 100% for the blank-setting wells and 0% for the control-setting wells. […]

SMILES: Cc1cc(C(C)(F)F)cc(C)c1-n1cc2c(=O)[nH]c(-c3ncn(C)n3)nc2n1
- IC50: 490 nM
